Experimental data reported in ChEMBL document CHEMBL1142715, “Discovery of new tetracyclic tetrahydrofuran derivatives as potential broad-spectrum psychotropic agents” (J Med Chem, 2005).

Sequences of proteins named here, by UniProt entry; tags and fusion partners are left off.
UniProt P28223, whole entry: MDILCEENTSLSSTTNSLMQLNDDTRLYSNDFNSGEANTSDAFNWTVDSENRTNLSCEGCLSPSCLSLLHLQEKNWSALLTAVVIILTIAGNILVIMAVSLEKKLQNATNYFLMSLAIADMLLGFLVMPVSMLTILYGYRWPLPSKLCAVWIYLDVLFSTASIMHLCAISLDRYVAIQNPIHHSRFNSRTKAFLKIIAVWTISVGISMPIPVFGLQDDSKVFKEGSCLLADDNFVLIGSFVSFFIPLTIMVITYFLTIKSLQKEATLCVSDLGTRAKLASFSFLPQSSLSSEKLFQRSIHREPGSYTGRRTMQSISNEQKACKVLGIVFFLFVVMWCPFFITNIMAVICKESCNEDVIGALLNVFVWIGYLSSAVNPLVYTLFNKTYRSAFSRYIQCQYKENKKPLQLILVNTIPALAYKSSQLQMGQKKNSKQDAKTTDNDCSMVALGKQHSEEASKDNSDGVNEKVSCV

Target: 5-hydroxytryptamine receptor 2A (Homo sapiens, UniProt P28223)

Work on `CN(C)C[C@H]1C[C@@H]2c3ccccc3Sc3ccc(F)cc3[C@H]2O1` yielded a Ki of 1.6 nM.
`CN(C)C[C@H]1CC2c3ccccc3Sc3ccc(F)cc3[C@H]2O1` (stereo in doubt; (-)-8d) gave a Ki of 0.24 nM.
Work on `CN(C)C[C@@H]1CC2c3ccccc3Sc3ccc(F)cc3[C@H]2O1` (stereo partly specified) yielded a Ki of 13 nM.
Molecule `CN(C)C[C@@H]1CC2c3ccccc3Oc3ccc(Br)cc3[C@H]2O1` (stereo partly specified) has a Ki of 38 nM.
`CN(C)C[C@H]1CC2c3ccccc3Oc3ccc(Br)cc3[C@H]2O1` (stereo partly specified) gave a Ki of 15 nM.
`CN(C)C[C@H]1CC2c3ccccc3Sc3ccc(F)cc3[C@H]2O1` (stereo in doubt; 8d) showed a Ki of 0.56 nM.
